Hits are enriched below; roughly 3.7% of the tested compounds scored in any of these assays.
Nrf2 inh = Nrf2 pathway inhibition. 360,000 compounds, 2.1% hits. Potency, µM (doses to about 46 µM), most hits filed as inhibitors. A549 ARE-Fluc reporter, luciferase luminescence, 18-24 h; also: nearly all actives have a fitted effect of over 60% in size
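In this cell-based qHTS, ARE-driven firefly luciferase in A549 cells reports Nrf2 activity; the luminescent signal after BugLite lysis is the measured value, with a prior CellTiter-Fluor read for cell health.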
Nrf2 activator = Nrf2 pathway activation. Potency, µM (series often up to 46.1 µM), actives largely listed as activators. AREc32 ARE-luciferase reporter (MCF7-derived line), luminescence, 24 h. 410,000 compounds, 0.31% hits; also: nearly all actives have a fitted effect of over 65% in size
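Luciferase luminescence (Steady-Glo, 30 min at room temperature) served as the read-out of ARE activation in AREc32 cells treated with compounds for 24 hr at 37 deg C.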
A549 viability = kills or reduces viability of A549 cells in Nrf2 counter-screen; A549 ARE-Fluc cells, CellTiter-Fluor viability, 18-24 h; Potency, µM (doses to about 46 µM), most hits filed as inhibitors; 390,000 compounds, 0.16% hits; AID 504648
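A549 ARE-Fluc cells in 5% FBS OPTI-MEM, 5000 cells/well, rested 2 h then exposed to compounds in concentration-response for 18-24 h at 37 °C. Viability by CellTiter-Fluor fluorescence (Ex 405/Em 525) after 30 min; luciferase luminescence (BugLite, 15 min, RT) read afterwards.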
ClpP mod = qHTS Assay for Activators of ClpP; ATP-dependent Clp protease proteolytic subunit (Bacillus subtilis (strain 168)), P80244; purified B. subtilis ClpP, FRET peptide cleavage, 20 min; Potency, µM (doses to about 57.5 µM); 340,000 compounds, 1.9% hits; AID 651965, 2013; active = well fitted falling curve with a large enough effect; inconclusive = small, poorly fitted or top-dose-only effect; inactive = no such curve, though single readings can be large or run the other way; also: the source files actives as falling curves though it sought activators and does not explain the sign; nearly all actives have a fitted effect of over 65% in size
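ClpP 10 microg/mL final, pH 8 Tris/KCl buffer with BSA, glycerol, Tween-20; compound pinned in; FRET-FV substrate; RT 20 min; Ex320/Em430; ΔFRET vs ADEP 5.8 microM, DMSO, no enzyme.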
IL-2 act = activators of IL-2. 360,000 compounds, 0.065% hits. AID 652025. IL-2 activation reporter assay, cell-based qHTS; stimulated with anti-CD3/CD4/CD28 beads; in transgenic mouse T cells. activation, % (series mostly up to about 46 µM); in the data active = activation above about 50%; inconclusive = mostly about 30% to 49%
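Unstimulated transgenic mouse T cells; 60-min compound exposure; bead-based TCR/CD4/CD28 stimulation; 18 h culture, 37 degrees C; dual fluorescence (EGFP, DsRed) plate cytometry.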
miR-21 reporter = raises the signal of a miR-21 reporter. Potency, µM (highest dose often 38.3 µM). 340,000 tested, under 10 active. HeLa miR-21 FLuc reporter, luciferase, 48 h; active = well fitted rising curve with a large enough effect; inconclusive = small, poorly fitted or top-dose-only effect; inactive = no such curve, though single readings can be large or run the other way;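 further: miR-21 action dims this reporter so a rising signal means less miR-21 action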
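Compounds were titrated across several concentrations (up to approximately 40 uM) and incubated 48 hours with HeLa miR-21-FLuc reporter cells (miR-21 target sequence downstream of FLuc, endogenous miR-21). Readout was firefly luciferase luminescence after lytic detection reagent.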
Large screens that a line does not name were inactive. Unless noted, calls follow the shape of the dose curve; as a rule, active = well fitted curve in the direction sought with a large enough effect; inconclusive = small, poorly fitted or top-dose-only effect, or another doubt; inactive = no such curve, though single readings can be large; an effect the other way counts as inactive or inconclusive.

Chains of the proteins cited; added tags and fusions are not shown.
ATP-dependent Clp protease proteolytic subunit (Bacillus subtilis (strain 168)), P80244, UniProt P80244, whole entry, looked up: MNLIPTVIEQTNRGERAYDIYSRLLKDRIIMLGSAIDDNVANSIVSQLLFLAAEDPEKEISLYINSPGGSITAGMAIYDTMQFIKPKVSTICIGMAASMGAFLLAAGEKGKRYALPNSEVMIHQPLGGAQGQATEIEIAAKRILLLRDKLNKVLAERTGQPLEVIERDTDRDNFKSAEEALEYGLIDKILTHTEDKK

COc1ccc(C2CC(c3cccs3)=NN2C(=O)CSc2nc3c(cnn3-c3ccccc3)c(=O)[nH]2)cc1 (stereo not drawn)	Nrf2 inh 16µM
COc1ccc(C(=O)N2N=C(c3cccs3)CC2c2ccccc2O)cc1 (stereo not drawn)	Nrf2 inh 18µM, A549 viability inconclusive (no result: ClpP mod)
COc1cccc(C2CC(c3cccs3)=NN2C(=O)CCC(=O)O)c1OC (stereo not drawn)	none (no result: ClpP mod)
CCCCn1c(N)c(N(CCOC)C(=O)c2ccc(-c3ccc(C(C)=O)cc3)o2)c(=O)[nH]c1=O	Nrf2 inh inconclusive, ClpP mod 32µM (no result: miR-21 reporter)
CC(C)CN(C(=O)COC(=O)c1ccc([N+](=O)[O-])s1)c1c(N)n(Cc2ccccc2)c(=O)[nH]c1=O	none (no result: miR-21 reporter)
CCCCn1c(N)c(N(CCC(C)C)C(=O)COC(=O)c2ccc([N+](=O)[O-])s2)c(=O)[nH]c1=O	Nrf2 inh 23µM (no result: miR-21 reporter)
CCCCn1c(N)c(N(CCOC)C(=O)CCCc2nc3ccccc3s2)c(=O)[nH]c1=O	ClpP mod 35µM (no result: miR-21 reporter)
CCCCn1c(N)c(N(CCC(C)C)C(=O)CCCc2nc3ccccc3s2)c(=O)[nH]c1=O	none
CCCCCN(C(=O)CCC(=O)OCC(=O)c1ccc(C(C)CC)cc1)c1c(N)n(CCCC)c(=O)[nH]c1=O (stereo not drawn)	Nrf2 inh 10µM, A549 viability inconclusive (no result: ClpP mod, miR-21 reporter)
CCn1cc(C(=O)Nc2cccc(Cl)c2)c2cc(OC)c(OC)cc2c1=O	none (no result: IL-2 act)
CCCCn1c(N)c(N(CC(C)C)C(=O)CCCc2nc3ccccc3s2)c(=O)[nH]c1=O	ClpP mod 7.1µM (no result: miR-21 reporter)
Cc1ccc(CN2CCC(CNc3ncnc4onc(-c5ccc(F)cc5)c34)CC2)cc1	Nrf2 inh inconclusive (no result: IL-2 act)
CCS(=O)(=O)c1c(Nc2ccc(F)c(Cl)c2)sc(C(=O)c2ccccc2)c1N	Nrf2 inh 21µM, A549 viability inconclusive (no result: IL-2 act)
N#Cc1cc(N)ccc1Sc1ccc(Cl)cc1	ClpP mod 28µM (no result: Nrf2 inh)
COCCNC(=O)c1c(NC(=O)c2cc(=O)c3cc(Cl)ccc3o2)sc2c1CCCC2	none (no result: IL-2 act)
Cc1cc2nc(-c3cccnc3SCC(=O)NCc3ccco3)[nH]c2cc1C	Nrf2 inh inconclusive, ClpP mod 16µM
O=C(CSc1ncccc1-c1nc2ccccc2[nH]1)NCc1ccco1	Nrf2 activator inconclusive, ClpP mod 14µM (no result: Nrf2 inh)
C=CCc1ccccc1OCCSc1nc(-c2ccccc2F)nc2cc(=O)[nH]n12	Nrf2 inh inconclusive (no result: IL-2 act)
COC(=O)CN1C(=O)CSc2ccc(S(=O)(=O)Nc3cccc(Br)c3)cc21	none (no result: IL-2 act)
COc1ccc(NS(=O)(=O)c2cc(Br)cc3c2N(C(=O)C2CC2)CC3)cc1OC	none (no result: Nrf2 inh, IL-2 act)
COCc1cc(C)nc(NCCO)c1C#N	ClpP mod 32µM
CCNc1nc(C)cc(COC)c1C#N	none
CCC(=O)Nc1ccc(C)cc1-c1nc2ccccc2n(CC(=O)Nc2ccccc2Cl)c1=O	none (no result: IL-2 act)
COC(=O)c1ccc(Cn2c(SCc3ccccc3)nc3ccncc32)cc1	none (no result: IL-2 act)
Cc1ccc(C(=O)OCn2ncc(Cl)c(Cl)c2=O)cc1	Nrf2 inh inconclusive, Nrf2 activator inconclusive, miR-21 reporter inconclusive (no result: A549 viability)
O=C(OCn1ncc(Cl)c(Cl)c1=O)c1ccc(C(F)(F)F)cc1	Nrf2 activator 10µM
O=C(CN1C(=O)CCc2cc(S(=O)(=O)N3CCOCC3)ccc21)NCc1ccc(F)cc1	none (no result: Nrf2 inh, IL-2 act)
CC(C)CC(=O)Nc1ccc(C(=O)Cn2nc(C(=O)O)c3ccccc3c2=O)cc1	ClpP mod 28µM
COCCn1c(C)cc(C(=O)Cn2nc(C(=O)O)c3ccccc3c2=O)c1C	Nrf2 inh inconclusive
C=CCn1c(C)cc(C(=O)Cn2nc(C(=O)O)c3ccccc3c2=O)c1C	Nrf2 inh 15µM
Cc1ccc(NS(=O)(=O)c2ccc3[nH]c4c(c3c2)CCCC4)cc1N(C)C	none (no result: IL-2 act)
CC(=O)c1ccc(N2CCN(C(=O)Nc3ccc(Cl)cc3)CC2)cc1	Nrf2 inh 16µM
O=C(Nc1ccc(Cl)cc1)N1CCN(c2ccccc2)CC1	none
CC(=O)c1ccc(NC(=O)N2CCN(c3cccc(Cl)c3)CC2)cc1	Nrf2 inh 9.2µM
COCc1cc(=O)[nH]c2cc(NC(=O)C3CC3)c(C)cc12	Nrf2 inh inconclusive, ClpP mod 20µM
COCCn1c(NC(=S)NC(=O)C2CC2)cc(=O)[nH]c1=O	none
C=CCn1c(=O)/c(=C/c2ccsc2)s/c1=C(\C#N)C(=O)NCCN1CCOCC1	IL-2 act 60 (no result: miR-21 reporter)
CCOC(=O)Cn1nc(-c2ccc(F)cc2)cc(Cc2ccccc2)c1=O	none
CCOC(=O)Cc1cc(-c2ccc(O)cc2)nc2ccc3ccccc3c12	Nrf2 inh inconclusive, ClpP mod 32µM
CCOC(=O)Cc1cc(-c2ccc(OC)cc2)nc2ccc3ccccc3c12	ClpP mod 8.9µM
COc1ccc(-c2cc(C(=O)OCC(=O)N(C)C)c3ccccc3n2)cc1	ClpP mod inconclusive
CCOC(=O)Cc1cc(-c2ccc(F)cc2)nc2ccc3ccccc3c12	ClpP mod 22µM
CCOC(=O)c1cc(Cl)c2c(ccc3ccccc32)n1	none (no result: Nrf2 inh, A549 viability, miR-21 reporter)
Cc1cccc(CCNC(=O)c2nc(-c3ccc(Cl)cc3)n3c2CCCCC3)c1	Nrf2 inh inconclusive (no result: IL-2 act)
CCC1CCCCN1C(=O)Cn1c(=O)n(-c2ccc(Cl)c(Cl)c2)c(=O)c2c(C)c(C(=O)N(C)C)sc21 (stereo not drawn)	none (no result: Nrf2 inh, IL-2 act)
COc1cc(Cl)cc(/C=C/c2ccc3ccccc3n2)c1OC(C)=O	Nrf2 activator inconclusive, ClpP mod 25µM
COc1cc(/C=C/c2ccc3cccc(OC)c3n2)c(OC(C)=O)c([N+](=O)[O-])c1	Nrf2 inh 26µM, A549 viability 9.2µM
CCC(=O)C1=C(c2ccc(F)cc2)N(C(=O)CC)n2cnnc2S1	none (no result: Nrf2 inh, IL-2 act)
COc1ccc(N(C)S(=O)(=O)c2cccc(C(=O)Nc3nc4ccccc4[nH]3)c2)cc1	Nrf2 inh 23µM, ClpP mod 28µM
O=C(Nc1nc2ccccc2[nH]1)c1cccc(Cl)c1	Nrf2 inh inconclusive, Nrf2 activator 5µM
CN(c1cccc(Cl)c1)S(=O)(=O)c1cccc(C(=O)Nc2nc3ccccc3[nH]2)c1	Nrf2 inh inconclusive
COc1ccc(NS(=O)(=O)c2ccccc2C(=O)O)cc1	none (no result: Nrf2 activator, ClpP mod, IL-2 act, miR-21 reporter)
COC(=O)c1cc(COc2ccc3oc(C)c(C(=O)OC(C)C)c3c2)c(C)o1	ClpP mod 2.5µM (no result: Nrf2 inh)
COCCOC(=O)c1c(C)oc2ccc(OCc3ccccc3)cc12	Nrf2 inh inconclusive (no result: ClpP mod)
COc1cccc(NC(=O)c2sc3nc(C)c(C(=O)Nc4ccc(C)cc4C)c(-c4ccco4)c3c2N)c1	none (no result: IL-2 act)

Screening data as filed in PubChem BioAssay.
